As usually defined, the IC50 is the point on the concentration scale where inhibition reaches its midpoint.

By UniProt entry, the sequences of proteins in these tests, tags left out. Where a name states a change or a piece, a line headed by the entry shows the natural chain unless it says otherwise.
UniProt P53779: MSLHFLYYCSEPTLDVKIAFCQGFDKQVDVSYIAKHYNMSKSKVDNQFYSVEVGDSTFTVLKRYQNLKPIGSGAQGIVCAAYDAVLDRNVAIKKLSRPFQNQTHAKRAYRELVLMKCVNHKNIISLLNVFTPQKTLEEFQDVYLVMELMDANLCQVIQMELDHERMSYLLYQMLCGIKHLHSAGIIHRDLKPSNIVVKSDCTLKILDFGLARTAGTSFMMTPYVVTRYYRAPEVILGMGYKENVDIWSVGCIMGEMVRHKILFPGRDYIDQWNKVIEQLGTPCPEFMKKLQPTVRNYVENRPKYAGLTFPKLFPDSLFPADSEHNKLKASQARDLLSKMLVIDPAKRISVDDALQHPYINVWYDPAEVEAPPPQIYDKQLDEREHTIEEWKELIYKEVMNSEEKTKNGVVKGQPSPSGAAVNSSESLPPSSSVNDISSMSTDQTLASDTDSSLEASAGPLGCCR

Structures are written as SMILES.

11 molecules from patent publication US12692268B2 (priority 2020, dated 2026) can be followed below.

The subject of the first assay is 38 different kinases.
Assay: not given
Conditions: 10 μM.
As to `NC(=O)N1Cc2nc(-c3ccc(Cl)c(Cl)c3)n(-c3ccnc(N[C@@H]4CCN(C(=O)C5CC5)C4)n3)c2C1` [Compound 16c, (R)-1-(2-((1-(cyclopropanecarbonyl)pyrrolidin-3-yl)amino)pyrimidin-4-yl)-2-(3,4-dichlorophenyl)-4,6-dihydropyrrolo[3,4-d]imidazole-5(1H)-carboxamide], the “selectivity profile in kinase panel” value is given as “did not show a selective profile result of JNK3”.

A further assay deals with JNK3 (Homo sapiens, UniProt P53779). Description: biochemical.
Details: not given
In turn, `NC(=O)N1Cc2nc(-c3ccc(Cl)c(Cl)c3)n(-c3ccnc(N[C@@H]4CCN(C(=O)C5CC5)C4)n3)c2C1` [Compound 16c, (R)-1-(2-((1-(cyclopropanecarbonyl)pyrrolidin-3-yl)amino)pyrimidin-4-yl)-2-(3,4-dichlorophenyl)-4,6-dihydropyrrolo[3,4-d]imidazole-5(1H)-carboxamide] gave an IC50 of under 30 nM. With `NC(=O)N1Cc2nc(-c3ccc(Cl)c(Cl)c3)n(-c3ccnc(N[C@H]4CCN(C(=O)C5CC5)C4)n3)c2C1` [Compound 16d, (S)-1-(2-((1-(cyclopropanecarbonyl)pyrrolidin-3-yl)amino)pyrimidin-4-yl)-2-(3,4-dichlorophenyl)-4,6-dihydropyrrolo[3,4-d]imidazole-5(1H)-carboxamide], the IC50 is 30 to 100 nM. Regarding `NC(=O)N1Cc2nc(-c3ccc(Cl)c(Cl)c3)n(-c3ccnc(N[C@H]4CCCN(C(=O)C5CCC5)C4)n3)c2C1` [Compound 16e, (S)-1-(2-((1-(cyclobutanecarbonyl)piperidin-3-yl)amino)pyrimidin-4-yl)-2-(3,4-dichlorophenyl)-4,6-dihydropyrrolo[3,4-d]imidazole-5(1H)-carboxamide], the IC50 was under 30 nM. Still for that read-out and setting: the same measure for `NC(=O)N1Cc2nc(-c3ccc(Cl)c(Cl)c3)n(-c3ccnc(N[C@H]4CCCN(C(=O)C5CCCC5)C4)n3)c2C1` [Compound 16f, (S)-1-(2-((1-(cyclopentanecarbonyl)piperidin-3-yl)amin)pyrimidin-4-yl)-2-(3,4-dichlorophenyl)-4,6-dihydropyrrolo[3,4-d]imidazole-5(1H)-carboxamide]: under 30 nM; for `NC(=O)N1Cc2nc(-c3ccc4ccccc4c3)n(-c3ccnc(N[C@H]4CCCN(C(=O)C5CC5)C4)n3)c2C1` [Compound 16g, (S)-1-(2-((1-(cyclopropanecarbonyl)piperidin-3-yl)amino)pyrimidin-4-yl)-2-(naphthalen-2-yl)-4,6-dihydropyrrolo[3,4-d]imidazole-5(1H)-carboxamide]: under 30 nM. In turn, `NC(=O)N1Cc2nc(-c3ccc4ccccc4c3)n(-c3ccnc(N[C@@H]4CCN(C(=O)C5CC5)C4)n3)c2C1` [Compound 16h, (R)-1-(2-((1-(cyclopropanecarbonyl)pyrrolidin-3-yl)amino)pyrimidin-4-yl)-2-(naphthalen-2-yl)-4,6-dihydropyrrolo[3,4-d]imidazole-5(1H)-carboxamide] gave an IC50 of under 30 nM. On to `NC(=O)N1Cc2nc(-c3ccc4c(c3)OCO4)n(-c3ccnc(N[C@@H]4CCN(C(=O)C5CC5)C4)n3)c2C1` [Compound 16k, (R)-2-(benzo[d][1,3]dioxol-5-yl)-1-(2-((1-(cyclopropanecarbonyl)pyrrolidin-3-yl)amino)pyrimidin-4-yl)-4,6-dihydropyrrolo[3,4-d]imidazole-5(1H)-carboxamide], for which the IC50 lay in the range of 30 to 100 nM.

The molecule `NC(=O)N1Cc2nc(-c3ccc4c(c3)OCO4)n(-c3ccnc(N[C@H]4CCN(C(=O)C5CC5)C4)n3)c2C1` [Compound 16l, (S)-2-(benzo[d][1,3]dioxol-5-yl)-1-(2-((1-(cyclopropanecarbonyl)pyrrolidin-3-yl)amino)pyrimidin-4-yl)-4,6-dihydropyrrolo[3,4-d]imidazole-5(1H)-carboxamide] displayed an IC50 of 100 to 10000 nM.

In turn, `NC(=O)N1Cc2nc(-c3ccc4c(c3)CCO4)n(-c3ccnc(N[C@@H]4CCN(C(=O)C5CC5)C4)n3)c2C1` [Compound 16o, (R)-1-(2-((1-(cyclopropanecarbonyl)pyrrolidin-3-yl)amino)pyrimidin-4-yl)-2-(2,3-dihydrobenzofuran-5-yl)-4,6-dihydropyrrolo[3,4-d]imidazole-5(1H)-carboxamide] displayed a half-maximal inhibitory concentration (IC50) of under 30 nM.

With `NC(=O)N1Cc2nc(-c3ccc4c(c3)CCO4)n(-c3ccnc(N[C@H]4CCN(C(=O)C5CC5)C4)n3)c2C1` [Compound 16p, (S)-1-(2-((1-(cyclopropanecarbonyl)pyrrolidin-3-yl)amino)pyrimidin-4-yl)-2-(2,3-dihydrobenzofuran-5-yl)-4,6-dihydropyrrolo[3,4-d]imidazole-5(1H)-carboxamide], the concentration for half-maximal inhibition (IC50) was 100 to 10000 nM.

Still in this assay, the particulars now being: JNK3 enzyme activity, Table 2; read-out: IC50.
In the case of `NC(=O)N1Cc2nc(-c3ccc4c(c3)OCO4)n(-c3ccnc(N[C@H]4CCCN(C(=O)C5CC5)C4)n3)c2C1` [Compound 16j, (S)-2-(benzo[d][1,3]dioxol-5-yl)-1-(2-((1-(cyclopropanecarbonyl)piperidin-3-yl)amino)pyrimidin-4-yl)-4,6-dihydropyrrolo[3,4-d]imidazole-5(1H)-carboxamide], the IC50 lay in the range of 30 to 100 nM.
